Earlier results, collected in patent US12084487B2, “Nanoparticles having molecules that bind or block PD-L1 and uses in treating cancer” (Emory University, priority 2016, dated 2024).

The chains behind the UniProt entries cited, without tags or fusion partners. Residues count along the entry.
UniProt Q9NZQ7, 19-290: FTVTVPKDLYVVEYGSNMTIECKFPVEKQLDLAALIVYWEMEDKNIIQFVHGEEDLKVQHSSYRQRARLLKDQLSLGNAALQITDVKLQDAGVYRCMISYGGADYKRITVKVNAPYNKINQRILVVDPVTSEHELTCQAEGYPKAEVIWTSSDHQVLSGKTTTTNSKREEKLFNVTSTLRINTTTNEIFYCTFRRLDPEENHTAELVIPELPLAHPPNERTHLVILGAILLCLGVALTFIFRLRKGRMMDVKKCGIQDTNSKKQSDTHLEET

Target: PD-L1 (Homo sapiens, UniProt Q9NZQ7)
Conditions: read-out: binding affinity to PD-L1; cited from earlier work

## native PD-1: native programmed death-1 protein
  Kd: ~8.5 µM
